Here are results for 26 compounds from PubChem BioAssay AID624354 (Sanford-Burnham Center for Chemical Genomics, 2012).

Each structure is given as a SMILES string. The entries are a selection whose mix differs from that of the whole data set. Some tests of the compounds listed are not included; inactive here does not mean inactive elsewhere. The source made the active and inactive calls.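 The calls were made as follows: active = compounds causing at least 50% loss of cell viability in the single-dose screen, relative to plate controls; inactive = the rest.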

A short description of the test: viability loss with TRAIL in NB7+C8 cells, primary screen, TRAIL sensitizer project, cell-based, ATPlite luminescence (AID 624354). Particulars: at 10 µM, hits give high values. A general note: ATP-based viability assays read luminescence as a measure of living cells.
Regarding `Cc1ccccc1C(=O)NCC1(N2CCCCC2)CCCCC1`, the inhibition (viability loss, TRAIL sensitization) is inactive: -7.47%.

For `CN(C)C1CCCC1OC(=O)C(O)(c1ccccc1)c1ccccc1` (stereo unspecified), the inhibition (viability loss, TRAIL sensitization) is inactive: 4.39%.

For the compound `CN(C)c1ccc(C(=O)NCC2(N(C)C)CCCCC2)cc1`, the inhibition (viability loss, TRAIL sensitization) was inactive: 10.4%.

For the compound `Cc1cc(C(=O)NCC2(N3CCCCC3)CCCCC2)ccc1[N+](=O)[O-]`, the inhibition (viability loss, TRAIL sensitization) is inactive: 4.67%.

For `CCN1CCCC(OC(=O)C2(O)c3ccccc3C=Cc3ccccc32)C1` (stereo unspecified), the inhibition (viability loss, TRAIL sensitization) was inactive: -12.8%.

`O=C(NCC1(N2CCCCC2)CCCCC1)c1cccc(Br)c1`: the inhibition (viability loss, TRAIL sensitization) is inactive: 5.79%.

As to `COc1ccc(C(=O)NCC2(N(C)C)CCCCC2)cc1`, the inhibition (viability loss, TRAIL sensitization) was inactive: 9.02%.

`C=CCN1CCN(CCOC(=O)C(O)(c2ccccc2)c2ccccc2)CC1`: the inhibition (viability loss, TRAIL sensitization) is inactive: 4.74%.

`O=C(NCC1(N2CCCCC2)CCCCC1)c1cc(F)c(F)cc1Cl`: the inhibition (viability loss, TRAIL sensitization) was inactive: 9.77%.

For the compound `CN1[C@@H]2CC[C@H]1CC(OC(=O)C(O)(c1ccccc1)c1ccccc1)C2` (stereo partly specified), the inhibition (viability loss, TRAIL sensitization) is inactive: 15.1%.

With `O=C(NCC1(N2CCCCC2)CCCCC1)c1cc([N+](=O)[O-])ccc1Cl`, the inhibition (viability loss, TRAIL sensitization) is inactive: -5.33%.

Consider `Cc1ccc(C(=O)NCC2(N3CCCCC3)CCCCC2)cc1`, for which the inhibition (viability loss, TRAIL sensitization) was inactive: -20.6%.

Take `CC(C)N1C(=O)CC2(CCN(CCOC(=O)C(O)(c3ccccc3)c3ccccc3)CC2)C1=O`: the inhibition (viability loss, TRAIL sensitization) was inactive: -10.4%.

On to `CCN(CC)CC(C)C(C)OC(=O)C(O)(c1ccccc1)c1ccccc1` (stereo unspecified), for which the inhibition (viability loss, TRAIL sensitization) was inactive: -17.5%.

As for `COc1cc(SC)ccc1C(=O)NCC1(N(C)C)CCCCC1`, the inhibition (viability loss, TRAIL sensitization) is inactive: -12.7%.

With `O=C(OC1CN2CCC1CC2)C(CO)(c1ccccc1)c1ccccc1` (stereo unspecified), the inhibition (viability loss, TRAIL sensitization) was inactive: -16.9%.

For `CN(C)c1cccc(C(=O)NCC2(N(C)C)CCCCC2)c1`, the inhibition (viability loss, TRAIL sensitization) is inactive: -8.47%.

As for `CC(C)Oc1ccc(C(=O)NCC2(N(C)C)CCCCC2)cc1`, the inhibition (viability loss, TRAIL sensitization) is inactive: 15.3%.

Consider `O=C(OCCN1CCCC1)C(O)(c1ccccc1)c1ccccc1`, for which the inhibition (viability loss, TRAIL sensitization) is inactive: 1.51%.

As for `COc1ccc(Br)c(C(=O)NCC2(N3CCCCC3)CCCCC2)c1`, the inhibition (viability loss, TRAIL sensitization) is inactive: -7.62%.

On to `C=C(C)C#CC(O)(C(=O)OC1CCN(C)CC1)c1ccccc1` (stereo unspecified), for which the inhibition (viability loss, TRAIL sensitization) was inactive: -8.55%.

As for `COc1cc(C(=O)NCC2(N(C)C)CCCCC2)c([N+](=O)[O-])cc1OC`, the inhibition (viability loss, TRAIL sensitization) is inactive: -25%.

Regarding `CN(C)C1(CNC(=O)c2ccc(Br)cc2)CCCCC1`, the inhibition (viability loss, TRAIL sensitization) is inactive: 5.81%.

On to `O=C(NCC1(N2CCCCC2)CCCCC1)c1cccc(Cl)c1`, for which the inhibition (viability loss, TRAIL sensitization) was inactive: 9.89%.

Regarding `COc1cccc(C(=O)NCC2(N3CCCCC3)CCCCC2)c1`, the inhibition (viability loss, TRAIL sensitization) is inactive: 18.6%.

`COc1ccc(Cl)cc1C(=O)NCC1(N(C)C)CCCCC1`: the inhibition (viability loss, TRAIL sensitization) was inactive: 0.745%.
